According to PubChem BioAssay AID540267 (National Center for Advancing Translational Sciences (NCATS), 2011):
Only a part is listed here, and it is no random draw. Some of these compounds have results that are not shown, active ones among them. Active and inactive are the calls of the source. Rule as the data show it: active = activity change below about -80%; inconclusive = between about -30% and that limit; inactive = weaker than that.

assay: Small Molecules that selectively kill Giardia lamblia: qHTS; settings: Giardia lamblia trophozoite viability; at 7.66 µM; active compounds read low;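 also: parasites exposed to compound for two days anaerobically before the ATP read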
Source text: Giardia lamblia is a human pathogen afflicting impoverished nations, and the most common cause of outbreaks of diarrhea in the United States. Giardia has been classified by the CDC as a category B bioterrorism organism. The favored anti giardiasis drugs in the US are metronidazole or tinidazole, compounds that have undesirable side effects. Moreover, increasing resistance to drug regimes and recurrence are a concern. It is thus clear that alternative drug treatments are needed.
In a collaboration between the University of Maryland, College Park and the NIH Chemical Genomics Center, a bioluminescence Giardia viability assay based on the trophozoites' ATP content was developed. This assay is suitable for high throughput screening, and miniaturized the assay for compound screening in 1536-well plates. The goal of the project is to screen the Molecular Libraries Small Molecule Repository (MLSMR) for compounds that selectively kill Giardia trophozoites.
NIH Chemical Genomics Center [NCGC]
NIH Molecular Libraries Probe Centers Network [MLPCN]
Assay Submitter (PI): Osnat Herzberg, University of Maryland, College Park, MD.
1. Dispense 2 ul/well media
2. Dispense 23 nl/well compounds
3. Dispense 4 ul/well Giardia trophozoites at a concentration of 100 cells/well
4. Incubate 48 hrs at 37 deg C anaerobically
5. Dispense 4 ul/well ATPLite 1-Step Luminescence assay kit
6. Incubate 15-30 min at room temperature
7. Read luminescence signal on ViewLux plate reader
% is scaled to controls: 0 for no effect and ±100 for the full control effect.

Compound	activity change
C=CCN1CCN(CCOC(=O)C(O)(c2ccccc2)c2ccccc2)CC1	inactive: 16%
O=C(NCC1(N2CCCCC2)CCCCC1)c1cc(F)c(F)cc1Cl	inactive: -10.8%
Cc1cc(C(=O)NCC2(N3CCCCC3)CCCCC2)ccc1[N+](=O)[O-]	inactive: -28.6%
CCN1CCCC(OC(=O)C2(O)c3ccccc3C=Cc3ccccc32)C1 (stereo not given)	inactive: 7.98%
O=C(NCC1(N2CCCCC2)CCCCC1)c1cccc(Br)c1	inactive: 0.943%
COc1ccc(C(=O)NCC2(N(C)C)CCCCC2)cc1	inactive: 4.07%
Cc1ccccc1C(=O)NCC1(N2CCCCC2)CCCCC1	inactive: 3.55%
CN(C)C1CCCC1OC(=O)C(O)(c1ccccc1)c1ccccc1 (stereo not given)	inactive: -11.5%
CN(C)c1ccc(C(=O)NCC2(N(C)C)CCCCC2)cc1	inactive: -3.89%
CC(C)N1C(=O)CC2(CCN(CCOC(=O)C(O)(c3ccccc3)c3ccccc3)CC2)C1=O	inactive: -9.7%
CCN(CC)CC(C)C(C)OC(=O)C(O)(c1ccccc1)c1ccccc1 (stereo not given)	inactive: 5.63%
COc1cc(SC)ccc1C(=O)NCC1(N(C)C)CCCCC1	inactive: -9.09%
Cc1ccc(C(=O)NCC2(N3CCCCC3)CCCCC2)cc1	inactive: 71.2%
O=C(NCC1(N2CCCCC2)CCCCC1)c1cc([N+](=O)[O-])ccc1Cl	inactive: 8.4%
CN1[C@@H]2CC[C@H]1CC(OC(=O)C(O)(c1ccccc1)c1ccccc1)C2 (stereo not given in full)	inactive: 2.46%
COc1ccc(Br)c(C(=O)NCC2(N3CCCCC3)CCCCC2)c1	inactive: -4.85%
CN(C)c1cccc(C(=O)NCC2(N(C)C)CCCCC2)c1	inactive: -8.56%
CC(C)Oc1ccc(C(=O)NCC2(N(C)C)CCCCC2)cc1	inactive: -1.48%
O=C(OCCN1CCCC1)C(O)(c1ccccc1)c1ccccc1	inactive: -15.3%
O=C(OC1CN2CCC1CC2)C(CO)(c1ccccc1)c1ccccc1 (stereo not given)	inactive: 8.82%
COc1cccc(C(=O)NCC2(N3CCCCC3)CCCCC2)c1	inactive: -17%
COc1ccc(Cl)cc1C(=O)NCC1(N(C)C)CCCCC1	inactive: 5.66%
O=C(NCC1(N2CCCCC2)CCCCC1)c1cccc(Cl)c1	inactive: 6.79%
CN(C)C1(CNC(=O)c2ccc(Br)cc2)CCCCC1	inactive: -5.79%
COc1cc(C(=O)NCC2(N(C)C)CCCCC2)c([N+](=O)[O-])cc1OC	inactive: 2.42%
